We go through three compounds from PubChem BioAssay AID1645887 (National Center for Advancing Translational Sciences (NCATS), 2021).

Protein sequences, listed by entry. Tags and fused reporters are not part of them.
UniProt Q8WZA2, whole entry: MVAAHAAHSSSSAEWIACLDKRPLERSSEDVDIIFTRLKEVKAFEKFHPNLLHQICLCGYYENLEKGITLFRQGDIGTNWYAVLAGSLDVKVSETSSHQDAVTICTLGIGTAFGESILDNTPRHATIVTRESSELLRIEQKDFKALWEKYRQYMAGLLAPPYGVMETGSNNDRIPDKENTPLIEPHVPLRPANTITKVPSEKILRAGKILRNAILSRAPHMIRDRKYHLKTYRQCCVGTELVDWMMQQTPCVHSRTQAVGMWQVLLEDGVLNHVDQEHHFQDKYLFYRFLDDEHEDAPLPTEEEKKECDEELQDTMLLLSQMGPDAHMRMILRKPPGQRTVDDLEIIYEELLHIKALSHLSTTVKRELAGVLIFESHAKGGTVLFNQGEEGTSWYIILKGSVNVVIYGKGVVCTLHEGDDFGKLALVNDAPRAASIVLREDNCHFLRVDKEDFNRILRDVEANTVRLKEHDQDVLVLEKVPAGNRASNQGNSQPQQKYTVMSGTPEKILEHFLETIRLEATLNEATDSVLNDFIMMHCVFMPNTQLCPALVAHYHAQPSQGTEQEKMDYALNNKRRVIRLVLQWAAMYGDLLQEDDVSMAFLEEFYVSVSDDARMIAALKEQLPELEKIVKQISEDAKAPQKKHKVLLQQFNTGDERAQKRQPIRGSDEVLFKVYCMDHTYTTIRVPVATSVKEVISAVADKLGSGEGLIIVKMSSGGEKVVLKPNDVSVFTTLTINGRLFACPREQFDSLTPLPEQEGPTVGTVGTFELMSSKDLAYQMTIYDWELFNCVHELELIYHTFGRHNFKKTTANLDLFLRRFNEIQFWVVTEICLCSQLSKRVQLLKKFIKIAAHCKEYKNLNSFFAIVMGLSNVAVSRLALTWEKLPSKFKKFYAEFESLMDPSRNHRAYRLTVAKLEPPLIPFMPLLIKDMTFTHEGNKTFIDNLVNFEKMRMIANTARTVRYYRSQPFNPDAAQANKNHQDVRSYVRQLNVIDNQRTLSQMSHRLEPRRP

“And” between values parts separate entries of the source, which are not always exact repeats. Equal entries are not always repeated. Only a part is listed here, and it is no random draw. The source made the active and inactive calls. Calls follow the shape of the dose curve; as a rule, active = well fitted activation curve with a large enough effect; inconclusive = small, poorly fitted or top-dose-only effect, or another doubt; inactive = no such curve, though single readings can be large or run the other way.
% is scaled to controls: 0 for no effect and ±100 for the full control effect.

The target in this assay is Rap guanine nucleotide exchange factor 4 (Homo sapiens) (UniProt Q8WZA2). Kind of assay: Validation qHTS for agonist of cAMP-regulated guanine nucleotide exchange factor 4 (EPAC2).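 Also: exchange makes BODIPY-GDP fluorescence drop when released from Rap1B; series mostly up to about 150 µM.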 As to conditions: EPAC2 Rap1B BODIPY-GDP exchange, fluorescence; active compounds read high. From the text:
Principle Investigator: Xiaodong Cheng Ph.D.
The University of Texas Medical Branch, […], TX
In multi-cellular eukaryotic organisms, the effects of cAMP are transduced by two ubiquitously-expressed intracellular cAMP receptors, the classic protein kinase A/cAMP-dependent protein kinase (PKA/cAPK) and the more recently discovered exchange protein directly activated by cAMP/cAMP-regulated guanine nucleotide exchange factor (EPAC/cAMP-GEF). Both PKA and EPAC are ubiquitously expressed in all tissues, and an increase in intracellular cAMP levels will lead to the activation of both PKA and EPAC. Therefore, careful dissections of the individual role and relative contribution of EPAC and PKA within the overall cAMP signaling in various model systems are critical for further elucidating the mechanism of cAMP signaling. To date no EPAC-specific antagonists and agonist, as well as isoform-specific agonists have been reported, and developing EPAC-specific pharmacological probes to determine the physiological functions that EPAC play in the overall cAMP-mediated signaling remains a major challenge within the research field. […]
This qHTS will be used to screen the Molecular Libraries Small Molecule Repository (MLSMR) as a concentration-titration series using the NCGC unique quantitative screening (qHTS) platform to find activators for EPAC1. […] Activators are identified by monitoring the change in fluorescence signal as the exchanged free BODIPY-GDP has a reduced fluorescence compared to Rap1-bound BODIPY-GDP. […]
Briefly, three uL of reagents (100 nM EPAC2, 250 nM RAP1B-BODIPY-GDP, 50 uM GDP) were dispensed into a 1536-well Greiner black solid-bottom medium binding assay plate. […] The assay plates were read at 5 minute intervals for 30 minutes in the ViewLux plate reader using 480nm excitation and 540nm emission filters. […]
In general terms: In qHTS, concentration-response curves come from the screen itself.
Take `CN(CCCl)CCCl`: the activation is inactive: -7.47% and inactive: -3.03%. As for `CCC(=O)N(c1ccccc1)C1(COC)CCN(CCc2cccs2)CC1`, the activation is inactive: 4.74%. Next, `CCC(=O)N(c1ccccc1)C1(COC)CCN(CCn2nnn(CC)c2=O)CC1`: inactive: -3%.
